Experimental findings from ChEMBL document CHEMBL5523701, “Structure-based discovery of small molecule inhibitors of FKBP51-Hsp90 protein-protein interaction” (Eur J Med Chem, 2024) are described below.

Each structure is given as a SMILES string. The source made the active and inactive calls. The calls are words filed in the database; no cut-off is given here. Where only a bound is given, the exact number is not on record here.

Test [1] deals with T1, Peptidyl-prolyl cis-trans isomerase FKBP5 (Homo sapiens) (UniProt Q13451).
T1 sequence (whole entry): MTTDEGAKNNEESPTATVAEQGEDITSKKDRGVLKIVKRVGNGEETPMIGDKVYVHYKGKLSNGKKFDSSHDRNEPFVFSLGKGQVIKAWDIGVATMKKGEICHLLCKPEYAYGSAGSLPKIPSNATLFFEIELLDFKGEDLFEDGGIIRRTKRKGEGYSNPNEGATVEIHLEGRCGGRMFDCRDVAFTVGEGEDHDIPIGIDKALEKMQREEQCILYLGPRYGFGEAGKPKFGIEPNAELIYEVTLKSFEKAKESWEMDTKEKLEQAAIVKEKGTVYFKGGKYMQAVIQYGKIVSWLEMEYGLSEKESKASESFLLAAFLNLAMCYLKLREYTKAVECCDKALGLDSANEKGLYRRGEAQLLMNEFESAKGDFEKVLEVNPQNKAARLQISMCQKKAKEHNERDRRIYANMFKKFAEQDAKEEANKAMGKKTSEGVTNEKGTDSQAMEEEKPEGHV
The experiment in a line: Binding affinity to GST-tagged human FKBP51 expressed in Escherichia coli BL21 (DE3) immobilized in CM7 sensor chip by SPR analysis. The following applies: dose 2.3-300 µM.

The target of test [2] is T2, Peptidyl-prolyl cis-trans isomerase FKBP4 (Homo sapiens) (UniProt Q02790).
T2 sequence (whole entry): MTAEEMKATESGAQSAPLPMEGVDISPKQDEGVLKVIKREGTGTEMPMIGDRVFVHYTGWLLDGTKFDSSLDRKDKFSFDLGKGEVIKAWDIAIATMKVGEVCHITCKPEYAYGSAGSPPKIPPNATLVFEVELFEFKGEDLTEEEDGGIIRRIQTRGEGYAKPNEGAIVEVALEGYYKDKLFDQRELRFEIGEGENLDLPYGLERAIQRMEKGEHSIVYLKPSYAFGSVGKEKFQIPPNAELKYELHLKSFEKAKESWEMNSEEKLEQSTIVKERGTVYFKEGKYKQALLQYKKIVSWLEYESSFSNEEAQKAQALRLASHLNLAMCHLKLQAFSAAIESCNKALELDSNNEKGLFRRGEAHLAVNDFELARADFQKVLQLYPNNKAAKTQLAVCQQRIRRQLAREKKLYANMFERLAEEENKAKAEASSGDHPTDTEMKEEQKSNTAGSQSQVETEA
The experiment in a line: Binding affinity to GST-tagged human FKBP52 expressed in Escherichia coli BL21 (DE3) immobilized in CM7 sensor chip by SPR analysis. The settings on record: dose 2.3-300 µM.

Test [3] relates to HEK293. As to the kind of experiment: Inhibition of FKBP51/Hsp90 protein-protein interaction in HEK293 cells assessed as decrease in luminescence signal by firefly luciferase based assay. The format is cell-based. The following applies: Homo sapiens, dose <= 30.0 µM.
Test [4] relates to HEK293. The experiment in a line: Inhibition of FKBP51/Hsp90 protein-protein interaction in HEK293 cells assessed as decrease in luminescence signal at 30 uM by firefly luciferase based assay relative to control. The test is classed as cell-based. The following applies: Homo sapiens.
The subject of test [5] is HEK293. The experiment in a line: Inhibition of protein-protein interaction of N-terminal FLAG-tagged FKBP51 transfected in HEK293 cells/Hsp90 in HEK293 cells incubated for 48 hrs by co-immunoprecipitation method. The following applies: Homo sapiens. The format is cell-based.
Test [6] concerns HEK293. As to the kind of experiment: Induction of cell proliferation in HEK293 cells by cell counting method. The test is classed as functional, cell-based. The following applies: Homo sapiens.
In test [7] the test system is HEK293. As to the kind of experiment: Induction of cell proliferation in HEK293 cells at 10 uM measured after 1 hr by MTT assay. The test is classed as functional, cell-based. The settings on record: Homo sapiens.
Test [8] deals with SH-SY5Y. As to the kind of experiment: Induction of mitochondrial membrane potential in human SH-SY5Y cells by TMRM fluorescence based analysis. The test is classed as functional, cell-based. The following applies: dose 10.0 µM.
Test [9] deals with SH-SY5Y. The experiment in a line: Effect on basal respiration in human SH-SY5Y cells. The format is functional, cell-based.
For test [10], the system named is SH-SY5Y. The experiment in a line: Effect on maximal respiration in human SH-SY5Y cells. The test is classed as functional, cell-based.
Test [11] deals with SH-SY5Y. As to the kind of experiment: Effect on respiration coupled to ATP synthesis in human SH-SY5Y cells. The format is functional, cell-based.
The test system of test [12] is SH-SY5Y. The experiment in a line: Induction of neurite outgrowth in differentiated human SH-SY5Y cells at 10 uM measured after 5 days by inverted microscopy. The test is classed as functional, cell-based. The following applies: time 5.0 day.
The subject of test [13] is SH-SY5Y. The experiment in a line: Induction of mitochondrial membrane potential in human SH-SY5Y cells. The format is functional, cell-based.

On to `COC(=O)c1c(NC(=O)CSc2nnc(-c3ccco3)c(-c3ccco3)n2)sc(C)c1C`, for which the Activity entry (in test [1]; in test [2]; with SH-SY5Y [8]) was “Dose-Dependent Effect” in each case. The inhibition entry in the test with HEK293 [3] was “Dose-Dependent Effect”; with HEK293 [4], > 70%. For the same molecule, in the test with HEK293 [5], the inhibition entry is “Active”. In addition, the outcome in the test on HEK293 [6], in the test on SH-SY5Y [9], in the test with SH-SY5Y [10] and with SH-SY5Y [11] was inactive. Moreover, the outcome in the test on HEK293 [7] and with SH-SY5Y [12] was Active.
On to `COC(=O)c1c(NC(=O)CCSc2nnc(-c3ccco3)c(-c3ccco3)n2)sc(C)c1C`, for which, in the test on SH-SY5Y [12], the outcome was Active.
With `COc1ccc(CC[C@@H](OC(=O)[C@@H]2CCCCN2C(=O)[C@H](c2cc(OC)c(OC)c(OC)c2)C2CCCCC2)c2cccc(OCC(=O)O)c2)cc1OC`, the result in the test with SH-SY5Y [13] and in the test with SH-SY5Y [12] was Active.
`COc1ccc(CC[C@@H](OC(=O)[C@@H]2CCCCN2C(=O)[C@H](c2cc(OC)c(OC)c(OC)c2)C2CCCCC2)c2cccc(OCCN3CCOCC3)c2)cc1OC`: the result in the test on SH-SY5Y [13] was Active.
